# Tested on: Tg2576 mice
# Test: Acute oral dosing of Tg2576 mice, brain soluble Aβ after 4 hours
# Type: in vivo, mouse
# Description: FIG. 2. Aβ modulating agents can inhibit Aβ aggregation, and agents that bind Aβ amyloid can modulate Aβ42 production. […] (C) Aβ42 modulating agents inhibit naturally secreted oligomer formation. 7PA2 cells were treated with fenofibrate, FT-1, or FT-9 at 50 μM and oligomers assessed by IP Western blotting. […] (D) FT-9, an Aβ42 reducing agent, can inhibit Aβ42 aggregation in vitro.
# FIG. 13. Compounds that bind Aβ are GSMs in vitro and in vivo. (A) A cell-based screen of Aβ-binders identified molecules that increase Aβ42 (DAPH) or decrease Aβ42 (Bis-ANS, X-34 or chrysamine G (CG)). Data are mean±s.e.m., n=3. (B) X-34 is an Aβ42-lowering GSM. Changes in amyloid-β peptide amounts after X-34 treatment are shown. Data are presented as percentage control±s.e.m., n=3. EC50 values were calculated. […] NA, not applicable. (C) X-34 binds to APP(C100)-Flag and decreases labeling by GSM photoprobes. Biotin incorporation into APP by Fen-B and Flurbi-BpB is presented as percentage of control (peptide without X-34)±s.e.m., n=2. (D) X-34 lowers Aβ42 in Tg2576 mice after 4 h. […] Data are presented as amyloid-β percentage of control relative to vehicle±s.e.m. Animals per group (n). Asterisk, P,0.05; two asterisks, P,0.01; ANOVA with Dunnett's post-hoc analysis.
# Finally, X-34 was tested for its ability to modulate Aβ42 amounts in an APP transgenic mouse (Tg2576).
structure (smiles),measurement,setting,value
C[C@@H](C(=O)O)c1ccc(-c2ccccc2)c(F)c1 [Tarenflurbil],Aβ40 (percentage of control),"50 mg kg21, Tg2576 mice, 4 h",123%
same,selectivity of Aβ reduction (Aβ42 vs Aβ40),"Tg2576, oral gavage, 4 hours",selective reductions of Aβ42
